The subject of one data set is Raw 264.7 and HeLa cells. As to conditions: MTT, ≤ 2 μg/well, 4 h serum-free then 20 h serum-containing medium, 37 °C, n = 3.
For data set [1] the following is noted: dynamic light scattering.

“poly(ethylene glycol)-block-poly(O-pentenyl-L-serine-graft-cysteamine) [PEG112-b-(PPELS20-g-CA)]”: under “CD in water, scanning range 190–250 nm”, the “Cotton effect in CD spectrum” value is reported as “no Cotton effect”.
Take “poly(ethylene glycol)-block-poly(O-pentenyl-L-serine-graft-cysteamine) [PEG112-b-(PPELS70-g-CA)]”: the “cytotoxicity at low concentrations” value in the data set with Raw 264.7 and HeLa cells was “unappreciable toxicity”. Besides, in data set [1], the “aggregation in aqueous solution” value is “some degree of aggregation”. In addition, where the note is “CD in water, CDPro (CONTIN method), remainder significant portion of random coil”, the “β-sheet content (secondary structure)” value amounted to 45%. Also, where the note is “CD, aqueous solution, pH 1 to pH 9”, the “stability of β-sheet conformation against pH changes (–[θ]216)” value is recorded as “remarkable stability against pH changes”.
